# Only a part is listed here, and it is no random draw. Calls of active or inactive are those of the source.
# Amino acid sequences for entries named in this document (tags omitted).
# UniProt P09923, whole entry: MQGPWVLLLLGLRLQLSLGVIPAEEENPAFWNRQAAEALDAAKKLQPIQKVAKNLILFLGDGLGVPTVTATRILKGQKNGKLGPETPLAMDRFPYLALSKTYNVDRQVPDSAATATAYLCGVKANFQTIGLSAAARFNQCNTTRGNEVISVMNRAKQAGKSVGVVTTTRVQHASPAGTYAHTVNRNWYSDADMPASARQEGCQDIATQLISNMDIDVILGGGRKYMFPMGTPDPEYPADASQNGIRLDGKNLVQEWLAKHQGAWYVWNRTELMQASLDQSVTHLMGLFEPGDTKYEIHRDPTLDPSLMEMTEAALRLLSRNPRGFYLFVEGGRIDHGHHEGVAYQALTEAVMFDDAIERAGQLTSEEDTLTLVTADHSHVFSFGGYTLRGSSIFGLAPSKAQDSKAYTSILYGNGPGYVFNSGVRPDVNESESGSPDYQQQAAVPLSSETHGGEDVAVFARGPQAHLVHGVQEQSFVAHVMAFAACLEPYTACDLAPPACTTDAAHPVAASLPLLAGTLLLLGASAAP
# Target: Intestinal-type alkaline phosphatase (Homo sapiens) (UniProt P09923)
# Experiment: enzymatic activation of intestinal alkaline phosphatase – biochemical, luminescence, uHTS, primary screen (AID 2524)
# Details: purified human IAP, CDP-Star luminescence, 30 min; at 10 µM; active compounds read high; 1 = vehicle-only enzyme, 0 = enzyme-free background
row,Structure (SMILES),activation factor
1,CCC(=O)N(c1ccccc1)C1(COC)CCN(CCc2cccs2)CC1,inactive: 1.12
2,CCC(=O)N(c1ccccc1)C1(COC)CCN(CCn2nnn(CC)c2=O)CC1,inactive: 0.965

# From PubChem BioAssay AID2524 (Sanford-Burnham Center for Chemical Genomics, 2010)
